Measured values reported in ChEMBL document CHEMBL1145786, “Synthesis and structure-activity relationship of alpha-sulfonylhydroxamic acids as novel, orally active matrix metalloproteinase inhibitors for the treatment of osteoarthritis” (J Med Chem, 2003).

Target: Collagenase 3 (Homo sapiens, UniProt P45452)

SMILES: CCCC[C@@](Cc1cccnc1)(C(=O)NO)S(=O)(=O)c1ccc(OC)cc1
- IC50: 127 nM
